Measurements as given in PubChem BioAssay AID2546 (National Center for Advancing Translational Sciences (NCATS), 2010).
In all, about 310,000 compounds went through this assay and about 11,000 (3.5%) were called active. All entries are inconclusive by the source's own rule. Clear calls are listed elsewhere. Calls come from the whole dose curve; as a rule, active = well fitted inhibition curve with a large enough effect; inconclusive = small, poorly fitted or top-dose-only effect, or effect the other way; inactive = flat fitted curve, though single readings scatter.
Potency is the fitted concentration of half-maximal effect.

Experiment: VP16 counterscreen qHTS for inhibitors of ROR gamma transcriptional activity;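 note: Gal4-VP16 expression switched on by copper sulfate through the metallothionein promoter; nearly all actives have a fitted effect of over 50% in size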
Details: Drosophila S2 Gal4-VP16 UAS-luciferase, luminescence, 20 h
In the case of `Cc1ccc(NCCc2c([N+](=O)[O-])cc([N+](=O)[O-])cc2[N+](=O)[O-])cc1`, the Potency was inconclusive: 17.8 µM.
For `O=[N+]([O-])CC(O)c1ccc([N+](=O)[O-])cc1` (centres undefined), the Potency was inconclusive: 25.1 µM.
For `CC1CCC(C(C)C)C(OP(=O)(Nc2ccccn2)c2ccccc2)C1` (centres undefined), the Potency was inconclusive: 12.6 µM.
In the case of `CC(C)(C)C(=O)NC(Sc1ncccn1)C(Cl)(Cl)Cl` (centres undefined), the Potency was inconclusive: 31.6 µM.
With `CCC(C)N(CC(C)C)C(=S)SC(NC(C)=O)C(Cl)(Cl)Cl` (centres undefined) the Potency was inconclusive: 20 µM.
With `Cc1cc(SC(NC(=O)c2ccccc2)C(Cl)(Cl)Cl)nc(C(C)C)n1` (centres undefined) the Potency was inconclusive: 31.6 µM.
For `O=[As](O)(c1ccc(O)cc1)c1ccccc1O`, the Potency was inconclusive: 0.141 µM.
For `O=C(NC(Sc1ccncn1)C(Cl)(Cl)Cl)c1ccccc1` (centres undefined), the Potency was inconclusive: 20 µM.
In the case of `CN(C(=O)Cc1ccc(Cl)c(Cl)c1)[C@H]1CCCC[C@@H]1N1CCCC1`, the Potency was inconclusive: 5.62 µM.
